# Measured values: BindingDB's records for 3965704
# The chains behind the UniProt entries cited, without tags or fusion partners. Residues count along the entry.
# UniProt P37136, 32-614 limits assumed: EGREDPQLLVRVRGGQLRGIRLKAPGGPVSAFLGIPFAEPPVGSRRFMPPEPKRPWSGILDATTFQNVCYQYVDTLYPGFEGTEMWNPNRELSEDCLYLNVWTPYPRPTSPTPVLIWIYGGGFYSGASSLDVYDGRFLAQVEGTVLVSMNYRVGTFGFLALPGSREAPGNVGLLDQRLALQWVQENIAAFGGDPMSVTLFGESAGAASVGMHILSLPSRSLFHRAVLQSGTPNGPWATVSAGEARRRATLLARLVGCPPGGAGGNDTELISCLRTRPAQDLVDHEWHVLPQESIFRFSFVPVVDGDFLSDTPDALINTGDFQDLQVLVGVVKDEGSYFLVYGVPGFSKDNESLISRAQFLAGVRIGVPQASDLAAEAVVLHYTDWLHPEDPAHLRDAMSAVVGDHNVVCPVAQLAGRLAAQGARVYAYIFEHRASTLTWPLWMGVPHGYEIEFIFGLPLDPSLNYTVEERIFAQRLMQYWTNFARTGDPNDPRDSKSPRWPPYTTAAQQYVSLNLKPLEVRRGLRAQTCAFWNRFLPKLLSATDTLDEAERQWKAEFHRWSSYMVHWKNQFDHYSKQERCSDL
# Tests used:
# Acetylcholinesterase [1] = biological target: T1, Acetylcholinesterase (Rattus norvegicus, UniProt P37136); experiment: ASSAY_NAME: ChEMBL_29076 (CHEMBL642843) DESCRIPTION: Effect on Acetylcholinesterase activity in rat erythrocytes
# Acetylcholinesterase [2] = biological target: T1, Acetylcholinesterase; experiment: ASSAY_NAME: ChEMBL_29075 (CHEMBL642842) DESCRIPTION: Effect on Acetylcholinesterase activity in rat brain homogenates
smiles,measurement,setting,value
C[n+]1ccccc1CCl,IC50,Acetylcholinesterase [1],460 µM
same,IC50,Acetylcholinesterase [2],340 µM
C[N+](C)(C)CCCCl,IC50,Acetylcholinesterase [1],260 µM
same,IC50,Acetylcholinesterase [2],260 µM
CCN(CC)CCc1cccc[n+]1C,IC50,Acetylcholinesterase [1],550 µM
same,IC50,Acetylcholinesterase [2],500 µM
CC[N+](C)(CC)CCc1ccccn1,IC50,Acetylcholinesterase [1],> 1000 µM
same,IC50,Acetylcholinesterase [2],> 1000 µM
C[n+]1ccc(CCN2C(=O)CCC2=O)cc1,IC50,Acetylcholinesterase [1],830 µM
same,IC50,Acetylcholinesterase [2],890 µM
C[n+]1ccccc1CCN1C(=O)CCC1=O,IC50,Acetylcholinesterase [1],870 µM
same,IC50,Acetylcholinesterase [2],470 µM
CC[N+](C)(CC)CCc1ccncc1,IC50,Acetylcholinesterase [1],200 µM
same,IC50,Acetylcholinesterase [2],200 µM
CC1C=CN(C)c2c1c1c(n2C)CCC1OCCCl (stereo not drawn),IC50,Acetylcholinesterase [1],250 µM
same,IC50,Acetylcholinesterase [2],380 µM
C[n+]1ccccc1CCC(O)CCl (stereo not drawn),IC50,Acetylcholinesterase [1],200 µM
same,IC50,Acetylcholinesterase [2],200 µM
